## Antibody variant affinities, Ab-14 light chain, assay B

The measurements come from Li et al. 2023 (doi:10.1038/s41467-023-39022-2) through the FLAb antibody collection.

Target: peptide PDVDLGDISGINAS, taken from heptad repeat 2 (HR2) of SARS-CoV-2 spike.

Parent scFv Ab-14: VH joined to VL by three GGGGS repeats. Changes lie in the light chain CDRs alone.
VH: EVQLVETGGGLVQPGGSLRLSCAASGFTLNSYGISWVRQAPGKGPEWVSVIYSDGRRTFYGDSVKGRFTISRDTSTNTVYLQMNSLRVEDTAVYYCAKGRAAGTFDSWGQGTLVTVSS
VL: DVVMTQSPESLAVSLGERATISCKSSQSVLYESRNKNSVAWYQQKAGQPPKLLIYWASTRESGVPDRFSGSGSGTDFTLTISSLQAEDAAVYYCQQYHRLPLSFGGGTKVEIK

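The starting antibody came from a phage panning campaign against this peptide. This is the validation round: designs drawn from the data on random variants, tested in the same kind of assay. Group labels follow the data file (En: ensemble of fine-tuned language models; GP: Gaussian process model; HC: hill climbing; Gen: genetic algorithm; Gibbs: Gibbs sampling; a sequence that several methods proposed may carry one label only). Affinity was read by AlphaSeq, a pooled yeast mating assay with surface-displayed partners. After mating in shaken culture at 30 °C for 16 h, diploids were selected and their barcode pairs sequenced. The ratio of observed to expected reads was calibrated, replicate by replicate, on BCL2-family standards whose Kd was known from biolayer interferometry. Mating was done six times.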

The parent's light chain CDRs are KSSQSVLYESRNKNSVA, WASTRES, QQYHRLPLS; each variant's own CDRs replace them letter for letter. This list holds designs with more than six substitutions. Affinities are written as log10 Kd with Kd in nM; a lower number is a better binder. A mean of the replicates is given; it leaves out those without a signal. An entry "n.d." has no value in the source: the pair was not observed among the diploids in that replicate. This suggests poor binding but is not conclusive. Order: sorted from the lowest average up, undetected variants last. Background: pairings of all light chain designs with three empty control strains gave a value in 4% of cases (median 2.64, 5th percentile 1.59). Values in that range, when seen in few replicates, are hard to tell from nonspecific mating. The authors' rule: three or more of the six replicates give a measured affinity, fewer mean a poor binder. The range of this assay differs from that of the first round, and the authors advise against merging the two.

CDR-L1	CDR-L2	CDR-L3	group	log10 Kd (nM) by replicate	log10 Kd (nM), mean
TLTQSLLMESHNKNSVA	DLSTRGS	QQYHRLPLS	En_HC	0.27 / -0.37 / -0.23 / 0.03 / 0.04 / 0.09	-0.03
LGNYEDQDDDRGMNNIA	NGDTKML	QQYHRLPLS	En_Gibbs	0.41 / 0.01 / -0.39 / -0.09 / -0.23 / 0.58	0.05
KLRWSMLYESRNKNSVA	NASQRCS	QQYHRLPLS	GP_Gibbs	0.32 / 0.10 / -0.18 / -0.06 / 0.00 / 0.15	0.06
KLDSAEQHGTMQNSAMA	SASVSTQ	QQYSRLPLS	En_Gibbs	0.38 / 0.05 / 0.22 / 0.04 / 0.18 / 0.33	0.20
TISMVMNHMTKNKMNVA	NMDMRED	QQYDRLPLS	En_Gen	0.56 / 0.17 / 0.17 / 0.25 / 0.24 / 0.41	0.30
KLSMSYRYESQEKNSIA	EMSTREE	QSYHRLPLA	En_HC	0.72 / 0.05 / 0.51 / 0.34 / 0.28 / -0.10	0.30
MYSQSYGGEQRNKNSVA	HASLREE	QQYHRLPLS	GP_Gibbs	0.68 / 0.20 / 0.29 / 0.11 / 0.30 / 0.35	0.32
HITYGMQVAGRHSSSIA	QAEERAK	QQYDRLPLA	En_Gen	0.44 / 0.12 / 0.88 / 0.33 / 0.20 / 0.63	0.43
KLYQSMGYLSHNKASIA	DMSRREN	QQYHRLPLS	En_HC	0.55 / 0.58 / 0.31 / 0.28 / 0.24 / 0.76	0.45
HVSSMLMAGGGIYNNIA	GTKVLER	QQYMRLPLM	En_Gibbs	0.49 / 0.35 / 0.33 / 0.53 / 0.48 / 0.68	0.48
KIGMTLNTLSHKQNNVA	DLVTREN	QQYFRLPLS	En_Gen	0.75 / 0.18 / 0.19 / 0.52 / 0.48 / 0.81	0.49
HLTDTVMQGSYYRNSVA	QESTRAQ	QQYHRLPLS	En_HC	0.73 / 0.59 / 0.61 / 0.32 / 0.25 / 0.48	0.50
MISDLTMYGSRNKSSVA	DLSTRGS	QQYHRLPLS	En_HC	n.d. / n.d. / 1.10 / 0.33 / 0.40 / n.d.	0.61
SVQVYTENFMERGQNIA	DASAKTV	QQYHRLPLA	En_Gibbs	0.71 / 0.38 / 0.67 / 0.58 / 0.79 / 0.72	0.64
TVKALLEMYAQDKHSVA	EAVERAS	QQYHRLPLG	En_Gibbs	0.87 / 0.63 / 0.65 / 0.36 / 0.81 / 0.61	0.66
TLYGLSMSMSKNKNNVA	EMSTREK	QQYDRLPLI	En_Gen	1.03 / 0.47 / 0.62 / 0.66 / 0.72 / 0.94	0.74
NLSISMLHEQINKHSVA	EVRTREK	QQYDRLPLS	En_HC	0.46 / 1.08 / 1.09 / 0.34 / 0.78 / 0.86	0.77
ALSQSTDLESVHKNSIA	DLMTRES	QQYHRLPLS	En_HC	0.17 / 1.00 / 1.49 / 0.55 / 1.04 / 0.65	0.82
NVGQLMDGEYRNKNSVA	HQSTRED	QHYHRLPLS	En_HC	1.01 / 1.33 / 1.00 / 0.77 / 0.80 / 1.09	1.00
HITYGMYVAGRHSSSIA	QAETRAK	QQYDRLPLI	En_Gen	1.43 / 0.88 / 0.95 / 0.65 / 1.42 / 1.41	1.12
MIAESVMYQSRNRNSVA	DNSTRED	QCYDRLPLS	En_HC	0.82 / 1.07 / 1.52 / 0.88 / 1.13 / 1.46	1.15
IISGSMLMESRNKKSVA	NAETREY	QHYDRLPLS	En_HC	1.87 / 1.29 / 0.88 / 1.04 / 0.84 / n.d.	1.18
KMSQAWWYESRMKWSVA	NASLREQ	QQYHRLPLS	GP_Gibbs	1.65 / 0.63 / 1.54 / 0.77 / 0.87 / 1.67	1.19
RLQQEHVGYPKKMDAIA	QGSQRCH	QSYDRLPLS	En_Gibbs	1.06 / 1.00 / 1.19 / 1.02 / 1.76 / 1.46	1.25
KIRVNHLMFSQNESNIA	GSSVRSR	QQYYHLPLT	En_Gibbs	1.73 / 1.49 / 1.28 / 1.10 / 1.16 / 1.16	1.32
KLRQLTHIESFNKNNVA	EMTTREQ	QSYDRLPLS	En_HC	1.80 / 1.34 / 1.45 / 1.22 / 1.75 / 1.54	1.52
MMSQVMGSGQRHRNNVA	QTSMREP	QQYDRLPLI	En_Gen	2.38 / 1.77 / 1.16 / 0.69 / 1.48 / 1.97	1.58
KLLDWYYGTTAMDSNIA	DQALEMD	QQYSRLPLT	En_Gibbs	1.81 / 0.67 / 1.56 / 1.38 / 1.77 / 2.56	1.62
KISQMVRVGSTVSNSIA	EMVTRAN	QQYHRLPLA	En_Gen	1.54 / 1.12 / 0.90 / 0.76 / 2.17 / 3.37	1.64
KLSISYLFESQEKNSIA	ENSTREK	QHYHRLPLS	En_HC	n.d. / 2.55 / 1.55 / 1.85 / 1.27 / 2.39	1.92
IVSQLMLWGLHAKNSIA	EAEMRTN	QQYERLPLI	En_Gen	n.d. / n.d. / n.d. / 2.03 / n.d. / n.d.	2.03
KLSWTCTGDLNQMHSVA	ESEVAVD	QQYAHLPLT	En_Gibbs	1.28 / 2.41 / 2.22 / 1.79 / 2.04 / 2.55	2.05
KVSEFMKGLMMRKDSIA	DNNTRGA	QQYDRLPLS	En_Gen	1.98 / 2.50 / 2.24 / 2.21 / 2.43 / 2.55	2.32
TISGTLMFGMRNRSNVA	EVSQRLN	QQYDRLPLF	En_Gen	2.81 / 1.63 / 1.78 / n.d. / 3.04 / 2.65	2.38
KLSGLMASSKFAKDNVA	ENNTREA	QQYDRLPLS	En_Gen	n.d. / 2.62 / n.d. / 2.28 / n.d. / n.d.	2.45
KIGHGLTTESRNRNSVA	QTETRVQ	QHYHRLPLS	En_HC	n.d. / 2.53 / n.d. / 2.74 / n.d. / n.d.	2.64
MISNEQDYGYSATNSVA	DVTEKLN	QQYKRLPLT	En_Gibbs	n.d. / 2.97 / n.d. / n.d. / n.d. / n.d.	2.97
KIWGSPLEGQSELQAVA	QAEVLRQ	QQYNMLPLS	En_Gibbs	n.d. / n.d. / n.d. / n.d. / n.d. / n.d.	n.d.